Assay results published in US5179122A, “Nutritional supplement containing Vitamin E” (priority 1991, dated 1993).

Columns and labels:
[1] = Surface tension as a function of concentration in water at room temperature (critical micelle concentration); assay type: physicochemical
Experimental: The surface tension of Myvatex Texture Lite was measured as function of concentration.

[2] = Melt temperature of VEA/TPGS blends by differential scanning calorimetry; assay type: physicochemical; details: VEA/TPGS (wt. %); DSC
Experimental: In this example, miscibility of the blends was investigated by determining the melt temperature of various blend ratios. […] The mixture was heated and blended to a homogeneous blend and cooled to room temperature. The melting point of each blend was determined by differential scanning calorimetry.

[3] = horse, in vivo, 7200 min
[4] = human, in vivo, po; cited from earlier work

d-alpha-tocopherylpolyethylene glycol 1000 succinate [TPGS]
critical micelle concentration [1]: about 0.01 g/100 mL | Melt Temperature [2]: 43.5 °C | tocopherol blood level relative to synthetic Vitamin E [3]: more than 3 times | elevation of blood tocopherol [4]: elevation of blood tocopherol was detected within one week
